Tests used:
Human ENPP1 [1] = biological target: T1, Human ENPP1 (Homo sapiens (Human), UniProt P22413)
Human ENPP1 [2] = biological target: T1, Human ENPP1; remark: listed apart in the source
[3] = biological target: ENPP1 expressed by MCF-7 cells (Homo sapiens (Human), UniProt P22413); experiment: cell-based

Sequences of proteins named here, by UniProt entry; tags and fusion partners are left off. A change or cut given only in a name is not applied to a line headed by its entry.
UniProt P22413: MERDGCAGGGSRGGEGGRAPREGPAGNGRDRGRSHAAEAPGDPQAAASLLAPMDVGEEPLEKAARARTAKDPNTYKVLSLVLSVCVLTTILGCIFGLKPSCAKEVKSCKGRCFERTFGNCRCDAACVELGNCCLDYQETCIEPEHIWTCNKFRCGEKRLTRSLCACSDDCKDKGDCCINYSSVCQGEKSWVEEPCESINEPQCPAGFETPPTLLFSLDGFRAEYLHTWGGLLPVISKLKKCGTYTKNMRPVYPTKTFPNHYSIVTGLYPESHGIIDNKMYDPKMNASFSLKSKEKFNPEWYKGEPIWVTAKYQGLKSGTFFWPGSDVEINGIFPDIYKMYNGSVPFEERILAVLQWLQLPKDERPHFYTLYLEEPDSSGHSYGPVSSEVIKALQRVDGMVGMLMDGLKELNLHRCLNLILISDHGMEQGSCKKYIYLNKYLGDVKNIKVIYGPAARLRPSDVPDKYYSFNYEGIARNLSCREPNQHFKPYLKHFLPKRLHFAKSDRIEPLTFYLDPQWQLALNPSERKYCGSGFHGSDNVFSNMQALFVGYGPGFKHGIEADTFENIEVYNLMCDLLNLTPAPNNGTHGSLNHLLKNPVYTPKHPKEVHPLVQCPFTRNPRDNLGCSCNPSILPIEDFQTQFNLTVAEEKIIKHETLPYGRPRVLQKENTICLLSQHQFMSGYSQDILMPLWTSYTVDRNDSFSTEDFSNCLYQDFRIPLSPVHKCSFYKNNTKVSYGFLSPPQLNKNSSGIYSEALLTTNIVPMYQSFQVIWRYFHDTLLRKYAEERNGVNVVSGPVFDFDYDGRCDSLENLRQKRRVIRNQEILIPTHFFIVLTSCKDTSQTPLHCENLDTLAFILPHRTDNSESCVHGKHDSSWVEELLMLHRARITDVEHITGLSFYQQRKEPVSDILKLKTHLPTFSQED

Compound	EC50 (Human ENPP1 [1])	Kd (Human ENPP1 [2])	EC50 [3]
CC(C)c1cn(Cc2ccc(S(N)(=O)=O)c(-c3ccncc3)c2)c2nc(C3CC3)nn2c1=O [Compound 5, 4-((2-cyclopropyl-6-isopropyl-7-oxo-[1,2,4]triazolo[1,5-a]pyrimidin-4(7H)-yl)methyl)-2-(pyridin-4-yl)benzenesulfonamide]	1 nM	0.631 nM	63.1 nM
CC(C)c1cn(Cc2ccc(S(N)(=O)=O)cc2O)c2nc(C3CC3)nn2c1=O [Compound 24, 4-((2-cyclopropyl-6-isopropyl-7-oxo-[1,2,4]triazolo[1,5-a]pyrimidin-4(7H)-yl)methyl)-3-hydroxybenzenesulfonamide]	3.98 nM	3.16 nM	
